The values below are quoted from earlier work in patent US7030081B2, “Muteins of the CGRP 1-7 peptide fragment and use thereof as nicotinic neuronal receptor enhancers” (S.I.S.S.A.- Scuola Internazionale Superiore di Studi …, priority 2000, dated 2006).

The test system of this series is nAChRs. Particulars: Giniatullin et al.; cited from earlier work.

On to “Calcitonin Gene Related Peptide (ACDTATCVTHRLAGLLSRSGGVVKNNFVPTNVGSKAF; Calcitonin gene-related peptide 1; UniProt P06881 83-119, looked up) [CGRP, endogenously occurring whole 37 amino acid neuropeptide]”, for which the “action on nAChRs reported earlier (in words)” value is given as “block nAChRs competitively”.
